Experimental data: ChEMBL document CHEMBL3638402, “Quarternized buprenorphine analogs” (2015)

Amino acid sequences for entries named in this document (tags omitted).
UniProt P41145, whole entry: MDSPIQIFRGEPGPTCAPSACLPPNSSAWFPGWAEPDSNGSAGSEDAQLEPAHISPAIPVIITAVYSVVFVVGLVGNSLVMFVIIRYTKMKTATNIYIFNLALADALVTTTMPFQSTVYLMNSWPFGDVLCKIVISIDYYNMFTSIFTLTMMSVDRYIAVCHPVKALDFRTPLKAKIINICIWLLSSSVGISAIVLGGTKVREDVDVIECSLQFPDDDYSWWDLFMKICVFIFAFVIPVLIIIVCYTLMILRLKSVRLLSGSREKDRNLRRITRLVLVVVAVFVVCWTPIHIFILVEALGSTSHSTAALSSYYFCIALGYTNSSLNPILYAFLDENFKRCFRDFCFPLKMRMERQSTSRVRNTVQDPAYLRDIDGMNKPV
UniProt P35372, whole entry: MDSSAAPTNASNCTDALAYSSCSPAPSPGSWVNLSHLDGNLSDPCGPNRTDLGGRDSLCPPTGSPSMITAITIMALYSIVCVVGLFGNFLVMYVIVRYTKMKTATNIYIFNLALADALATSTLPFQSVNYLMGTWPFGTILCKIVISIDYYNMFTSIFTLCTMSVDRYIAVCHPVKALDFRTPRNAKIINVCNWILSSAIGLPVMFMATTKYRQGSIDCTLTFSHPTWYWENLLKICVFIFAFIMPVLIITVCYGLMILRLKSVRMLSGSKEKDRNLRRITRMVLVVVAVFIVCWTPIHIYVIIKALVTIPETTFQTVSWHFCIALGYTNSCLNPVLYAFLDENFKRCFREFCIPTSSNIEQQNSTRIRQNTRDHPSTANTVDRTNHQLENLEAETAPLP
UniProt P41143, whole entry: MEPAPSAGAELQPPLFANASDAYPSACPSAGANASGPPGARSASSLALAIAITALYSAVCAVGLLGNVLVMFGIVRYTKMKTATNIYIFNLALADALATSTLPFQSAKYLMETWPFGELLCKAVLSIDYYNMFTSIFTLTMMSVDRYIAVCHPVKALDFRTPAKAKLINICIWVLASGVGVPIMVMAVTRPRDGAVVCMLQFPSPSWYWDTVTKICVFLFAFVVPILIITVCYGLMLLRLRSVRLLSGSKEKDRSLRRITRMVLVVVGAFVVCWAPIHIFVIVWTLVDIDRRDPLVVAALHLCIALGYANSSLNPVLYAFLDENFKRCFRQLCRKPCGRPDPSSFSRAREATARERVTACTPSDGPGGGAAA

Assays:
[1] = molecular target: Kappa-type opioid receptor (Homo sapiens, UniProt P41145); test: Radioligand Dose-Displacement Binding Assay: Membranes from recombinant HEK-293 cells expressing the human kippa opioid receptor (cloned in house) were prepared by lysing cells in ice cold hypotonic buffer (2.5 mM MgCl2, 50 mM HEPES, pH 7.4) (10 mL/10 cm dish) followed by homogenization with a tissue grinder/Teflon pestle. Membranes were collected by centrifugation at 30,000xg for 15 min at 4 C. a; settings: sf9
Mu-type opioid receptor = Mu-type opioid receptor (Homo sapiens, UniProt P35372); test: Radioligand Dose-Displacement Binding Assay: Radioligand dose-displacement binding assays for -opioid receptors used 0.3 nM [3H]-diprenorphine (Perkin Elmer, Shelton, Conn.), with […] membrane protein/well in a final volume of 500 ul binding buffer (10 mM MgCl2, 1 mM EDTA, 5% DMSO, 50 mM HEPES, pH 7.4). Reactions were carried out in the absence or presence of increasing concentrations of unlabele
[2] = molecular target: Delta-type opioid receptor (Homo sapiens, UniProt P41143); test: Radioligand Dose-Displacement Binding Assay: δ-opioid Receptor Binding Assay Procedures were conducted as follows. Radioligand dose-displacement assays used 0.3 nM [3H]-Naltrindole (Perkin Elmer, Shelton, Conn.; 33.0 Ci/mmole) with 5 μg membrane protein (Perkin Elmer, Shelton, Conn.) in a final volume of 500 μl binding buffer (5 mM MgCl2, 5% DMSO, 50 mM Trizma base, pH 7.4). Non-specific binding w

With `CO[C@]12CC[C@@]3(C[C@@H]1COCc1ccccc1F)[C@H]1Cc4ccc(O)c5c4[C@@]3(CC[N+]1(C)CC1CC1)[C@H]2O5` (some centres undefined) the Ki [1] was 0.2 nM.
Compound `CO[C@]12CC[C@@]3(C[C@@H]1COCc1cccc(F)c1)[C@H]1Cc4ccc(O)c5c4[C@@]3(CC[N+]1(C)CC1CC1)[C@H]2O5` (some centres undefined) has a Ki (Mu-type opioid receptor) of 5.35 nM.
`CO[C@]12CC[C@@]3(C[C@@H]1COCc1ccccc1)[C@H]1Cc4ccc(O)c5c4[C@@]3(CC[N+]1(C)CC1CC1)[C@H]2O5` (some centres undefined) showed a Ki [2] of 18.8 nM.
With `CO[C@]12CC[C@@]3(C[C@@H]1COCc1ccc(F)cc1)[C@H]1Cc4ccc(O)c5c4[C@@]3(CC[N+]1(C)CC1CC1)[C@H]2O5` (some centres undefined) the Ki [2] was 175 nM.
For `CO[C@]12CC[C@@]3(C[C@@H]1COCc1ccsc1)[C@H]1Cc4ccc(O)c5c4[C@@]3(CC[N+]1(C)CC1CC1)[C@H]2O5` (some centres undefined), the Ki [1] was 0.2 nM, the Ki (Mu-type opioid receptor) was 24.3 nM and the Ki [2] was 202 nM.
With `CO[C@]12CC[C@@]3(C[C@@H]1COCc1cccc(Cl)c1)[C@H]1Cc4ccc(O)c5c4[C@@]3(CC[N+]1(C)CC1CC1)[C@H]2O5` (some centres undefined) the Ki (Mu-type opioid receptor) was 6.26 nM.
Compound `CO[C@]12CC[C@@]3(C[C@@H]1COCc1ccc(C)cc1)[C@H]1Cc4ccc(O)c5c4[C@@]3(CC[N+]1(C)CC1CC1)[C@H]2O5` (some centres undefined) has a Ki [2] of 109 nM.
